This is an account of results in patent US20250127912A1, “COMPOSITIONS FOR DELIVERY OF POLYNUCLEOTIDES” (miRecule, Inc., priority 2021, published 2025).

Non-standard residues stand in square brackets, D forms with d. Groups on a side chain read outwards from the residue. Primed or numbered codes have the meaning given here. No end group written: not given here. Maleimide‑BranchedPEG1.5kda = maleimide-linked branched PEG of 1.5 kDa; PEG12′ = PEG12 polymer (polyethylene glycol, 12 units); PEG1000 = N-terminal 1 kDa PEG spacer; PEG5000 = N-terminal 5 kDa PEG spacer; PEG2000 = PEG polymer of 2000 Da

A short description of this data set: Precipitation/aggregation of Cetux-PEG4-Azide-DCBO-PEG5-M30m3 (DAR2) mixed with cationic peptides, hybrid polymers or cationic polymers. The settings on record: peptide/hybrid polymer mixed in water with Cetux-PEG4-Azide-DCBO-PEG5-M30m3 (DAR2) at 1:1 or 1:2 -charge/+charge ratio; spun 15,000g 15 min; visual inspection and microscopy.

In the case of “[PEG12]RRRRRRRRRRRR (N-terminal PEG12; MOD_RES 1 N-terminal PEG12 spacer) [PEG12PolyArg12]”, the “Precipitated or Aggregated” value was “N”.
In the case of “[PEG12][PEG12]RRRRRRRRRRRR (N-terminal PEG24; MOD_RES 1 N-terminal PEG24 spacer) [PEP24PolyArg12]”, the “Precipitated or Aggregated” value is “N”.
The result for “RRRRRRRRRRRRC-[Maleimide-Dextran5k] (RRRRRRRRRRRRC([maleimide-dextran 5 kDa])) [PolyArg12C-Dextran5000Da]” reads “N”; that for “[PEG1000]-RRRRRRRRRRRR (PEG1000-RRRRRRRRRRRR) [PEG1000DaPolyArg12]”, “N”; that for “[PEG12]RdRdRdRdRdRdRdRdRd [PEG12PolyArg9d]”, “N”.
For the substance “RRRRRRRRRRRRC-[Maleimide-BranchedPEG1.5kda] (RRRRRRRRRRRRC([maleimide-branched PEG 1.5 kDa])) [PolyArg12Cbp1.5kDa]”, the “Precipitated or Aggregated” value is “N”.
Regarding “[PEG12][PEG12]RRRRRRRRRRRRC (N-terminal PEG24; MOD_RES 1 N-terminal PEG24 spacer) [PEG24PolyArg12C]”, the “Precipitated or Aggregated” value is reported as “N”.
For “[PEG5000]-RRRRRRRRRRRR (PEG5000-RRRRRRRRRRRR) [PEG5000DaPolyArg12]”, the “Precipitated or Aggregated” value is “N”.
With “[PEG2000]-RRRRRRRRRRRR (PEG2000-RRRRRRRRRRRR) [PEG2000DaPolyArg12]” the entry was “N”; with [PEG12][PEG12]RRRRRRRRR [PEG24PolyArg9], “N”.
With “[Maleimide-BranchedPEG1.5kda]-CRRRRRRRRRRRRC-[Maleimide-BranchedPEG1.5kda] ({Maleimide‑BranchedPEG1.5kda}-CRRRRRRRRRRRRC-{Maleimide‑BranchedPEG1.5kda}; not fully specified (residues 1, 14); printed as [Maleimide-BranchedPEG1.5kda]-CRRRRRRRRRRRRC-[Maleimide-BranchedPEG1.5kda]; cysteine pairing not given here) [CPolyArg12Cbp1.5kDa]” the entry was “N”.
The result for “RRRRRRRRRRRRC-[Maleimide-BranchedPEG16kda] (RRRRRRRRRRRRC([maleimide-branched PEG 16 kDa])) [PolyArg12Cbp16kDa]” reads “N”; that for “RRRRRRRRRRRRC-[Maleimide-PEG5000] (not fully specified (residue 13); printed as RRRRRRRRRRRRC-[Maleimide-PEG5000]) [PolyArg12C-PEG5000Da]”, “N”.
“[PEG12]RRRRRRC (N-terminal PEG12; MOD_RES 1 N-terminal PEG12 spacer) [PEG12PolyArg6C]”: the “Precipitated or Aggregated” value is recorded as “N”.
The result for “[PEG12]RRRRRRRRRRRRRRR ([PEG12′]RRRRRRRRRRRRRRR) [PEG12PolyArg15]” reads “Y”; that for “RRRRRRRRRRRR-[NHS Ester-BranchedPEG2kda] [PolyArg12bp2kDa]”, “N”; that for [PEG12]RRRRRR [PEG12PolyArg6], “N”.
As for “RRRRRRRRRRRRC-[Maleimide-BranchedPEG2kda] (RRRRRRRRRRRRC([maleimide-branched PEG 2 kDa])) [PolyArg12Cbp2kDa]”, the “Precipitated or Aggregated” value was “N”.
As for “RRRRRRRRRRRRC-[Maleimide-BranchedPEG3.9kda] (RRRRRRRRRRRRC([maleimide-branched PEG 3.9 kDa])) [PolyArg12Cbp3.9kDa]”, the “Precipitated or Aggregated” value is “N”.
The result for “[PEG12]RRRRRRRRRRRRC (N-terminal PEG12; MOD_RES 1 N-terminal PEG12 spacer) [PEG12PolyArg12C]” reads “Y”.
The result for “[PEG12]RRRRRRRRRRRRRRRRRR ([PEG12′]RRRRRRRRRRRRRRRRRR) [PEG12PolyArg18]” reads “Y”; that for “RRRRRRRRRRRRC-[Maleimide-PEG2000] (not fully specified (residue 13); printed as RRRRRRRRRRRRC-[Maleimide-PEG2000]) [PolyArg12C-PEG2000Da]”, “N”; that for “[PEG12]RdRdRdRdRdRdRdRdRdRdRdRd (RRRRRRRRRRRR; N-terminal PEG12; D-arginines; MOD_RES 1 N-terminal PEG12 spacer; MOD_RES 1..12 D-Arginine) [PEG12PolyArg12{d}]”, “N”.
